For the assay, the target named is Indoleamine 2,3-dioxygenase 1 (Homo sapiens, UniProt P14902). Briefly: Inhibition of human IDO1 transfected in HEK293T cells assessed as kynurenine formation using L-Trp as substrate after 7 hrs. Type of assay: cell-based.

The chains behind the UniProt entries cited, without tags or fusion partners.
UniProt P14902, whole entry: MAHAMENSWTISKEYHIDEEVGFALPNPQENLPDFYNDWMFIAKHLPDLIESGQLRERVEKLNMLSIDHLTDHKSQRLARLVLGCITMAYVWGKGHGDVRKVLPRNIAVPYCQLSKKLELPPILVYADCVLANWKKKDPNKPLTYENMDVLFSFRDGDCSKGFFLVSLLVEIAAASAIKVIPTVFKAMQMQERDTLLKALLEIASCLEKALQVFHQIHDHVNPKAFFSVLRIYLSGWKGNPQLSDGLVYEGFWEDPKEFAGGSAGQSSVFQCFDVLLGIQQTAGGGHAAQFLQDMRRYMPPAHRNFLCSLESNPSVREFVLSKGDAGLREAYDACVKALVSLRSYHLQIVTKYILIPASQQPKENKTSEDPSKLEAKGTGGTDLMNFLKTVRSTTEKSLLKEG

Data on 1 molecule can be found in ChEMBL document CHEMBL4425176, “1,2,3-Triazoles as inhibitors of indoleamine 2,3-dioxygenase 2 (IDO2)” (Bioorg Med Chem Lett, 2016).

As usually defined, the IC50 is the point on the concentration scale where inhibition reaches its midpoint. `Oc1ccc(Cl)cc1-c1c[nH]nn1`: the IC50 worked out at 0.09 µM.
